Laboratory results reported in US8506945B2, “Polymers with structure-defined functions” (Smith & Nephew, PLC., priority 2001, dated 2013).

Protein sequences, listed by entry. Tags and fused reporters are not part of them. Residues count along the entry.
UniProt P00760, 24-246: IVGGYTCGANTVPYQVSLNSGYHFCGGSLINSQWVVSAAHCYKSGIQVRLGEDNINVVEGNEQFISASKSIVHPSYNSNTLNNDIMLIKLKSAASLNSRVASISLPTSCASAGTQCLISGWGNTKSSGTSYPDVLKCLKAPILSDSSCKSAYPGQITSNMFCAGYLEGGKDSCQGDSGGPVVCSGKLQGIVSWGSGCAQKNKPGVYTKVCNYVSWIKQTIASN

Molecular target: T1, Trypsin (Bos taurus, UniProt P00760)
T1 construct: gene PRSS1
Conditions: 0.2M TRIS, 20° C., trypsin inhibition activity

NCCc1ccc(S(=O)(=O)F)cc1 [AEBSF, 4-(2-aminoethyl)benzenesulphonylfluoride]
course of inhibitive capacity over an 8-hour period: fell exponentially toward zero
